Laboratory results: ChEMBL document CHEMBL3734700, “Design, synthesis and biological activity of 4-[(benzimidazol-1-yl)methyl]biphenyl-2-sulphonamides as dual angiotensin II and endothelin A receptor antagonists” (Medchemcomm, 2015)

Chains of the proteins cited; added tags and fusions are not shown.
UniProt P25101, whole entry: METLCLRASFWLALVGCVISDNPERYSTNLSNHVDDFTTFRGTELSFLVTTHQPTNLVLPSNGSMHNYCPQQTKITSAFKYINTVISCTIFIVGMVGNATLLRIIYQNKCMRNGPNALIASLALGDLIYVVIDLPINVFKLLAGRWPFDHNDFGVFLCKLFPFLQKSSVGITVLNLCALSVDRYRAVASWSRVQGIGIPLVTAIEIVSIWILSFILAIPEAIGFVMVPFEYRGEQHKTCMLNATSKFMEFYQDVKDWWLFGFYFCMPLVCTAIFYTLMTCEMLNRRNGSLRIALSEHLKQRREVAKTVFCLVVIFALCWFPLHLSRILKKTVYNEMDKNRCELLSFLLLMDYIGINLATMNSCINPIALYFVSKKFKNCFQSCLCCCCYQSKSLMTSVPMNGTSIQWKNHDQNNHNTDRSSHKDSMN

biological target: Endothelin-1 receptor (Homo sapiens, UniProt P25101); assay: Displacement of 125I-labeled endothelin 1 from human ETA receptor expressed in CHO-K1 cells incubated for 4 hrs by gamma counting analysis; format: cell-based

| IC50 [nM] | SMILES |
| --- | --- |
| 2 | CCCCC1=NC2(CCCC2)C(=O)N1Cc1ccc(-c2ccccc2S(=O)(=O)Nc2onc(C)c2C)c(CN2CCC(C)(C)C2=O)c1 [BMS-248360] |

biological target: Type-1 angiotensin II receptor (Homo sapiens, UniProt P30556); assay: Displacement of 125I-labeled Sar1-Ile8-angiotensin II from human AT1 receptor incubated for 2 hrs by gamma counting analysis

| SMILES | IC50 [nM] |
| --- | --- |
| CCCc1nc(Cl)c(C(N)=O)n1Cc1ccc(-c2ccccc2S(=O)(=O)Nc2onc(C)c2C)cc1 | 21 |
| CCCCc1nc(Cl)c(C(N)=O)n1Cc1ccc(-c2ccccc2S(=O)(=O)Nc2onc(C)c2C)cc1 | 24 |
| CCCCC1=NC2(CCCC2)C(=O)N1Cc1ccc(-c2ccccc2S(=O)(=O)Nc2onc(C)c2C)c(CN2CCC(C)(C)C2=O)c1 [BMS-248360] | 6 |

The remaining lines, values ahead:

| IC50 [nM] | SMILES |
| --- | --- |
| 30 | CCCc1nc2c(n1Cc1ccc(-c3ccccc3S(=O)(=O)Nc3onc(C)c3C)c(CO)c1)C(=O)CCCC2 |
| 2 | CCCc1nc2c(n1Cc1ccc(-c3ccccc3S(=O)(=O)Nc3onc(C)c3C)c(C)c1)C(=O)CCCC2 |
| 1.3 | CCCc1nc(CC)c(C(N)=O)n1Cc1ccc(-c2ccccc2S(=O)(=O)Nc2onc(C)c2C)c(CC)c1 |
| 8 | CCCc1nc(CC)c(C(=O)NC)n1Cc1ccc(-c2ccccc2S(=O)(=O)Nc2onc(C)c2C)c(COC)c1 |
